The source of these data is publication PMC4106024 (Cancer biology & therapy, 2008).

Chains of the proteins cited; added tags and fusions are not shown.
UniProt Q07817, whole entry: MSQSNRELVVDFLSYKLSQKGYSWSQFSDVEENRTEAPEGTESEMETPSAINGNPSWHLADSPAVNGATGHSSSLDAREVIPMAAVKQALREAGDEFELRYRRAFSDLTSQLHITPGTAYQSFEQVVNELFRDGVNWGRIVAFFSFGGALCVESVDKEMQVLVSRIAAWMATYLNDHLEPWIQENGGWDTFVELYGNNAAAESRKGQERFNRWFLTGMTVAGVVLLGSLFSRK
UniProt P10415, whole entry: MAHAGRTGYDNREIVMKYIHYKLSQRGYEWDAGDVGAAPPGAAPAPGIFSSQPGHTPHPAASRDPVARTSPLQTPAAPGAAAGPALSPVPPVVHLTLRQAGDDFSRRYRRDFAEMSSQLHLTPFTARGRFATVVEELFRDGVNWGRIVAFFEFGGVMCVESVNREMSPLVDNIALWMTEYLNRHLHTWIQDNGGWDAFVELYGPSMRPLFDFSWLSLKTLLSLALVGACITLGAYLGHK

Assay [1] addresses heterodimers between Bcl-XL and Bim (Homo sapiens, UniProt Q07817). Kind of assay: Co-immunoprecipitation of pro- and anti-apoptotic complexes in WSU-DLCL2 cells. It is filed as cell-based. The settings on record: WSU-DLCL2, co-immunoprecipitation with anti-Bcl-XL antibody.
In assay [2] the target is recombinant human Bcl-XL (Homo sapiens, UniProt Q07817). The settings on record: n = 3.
For assay [3], the system named is WSU-DLCL2 cells. Kind of assay: Cell growth inhibition by Trypan Blue cell counting and MTT assay. The class given is cell-based, human. The conditions noted are these: read-out: IC50, 50% growth inhibition concentration; WSU-DLCL2, 72 h; estimated from cell counting and MTT.
In assay [4] the target is recombinant human Bcl-2 (Homo sapiens, UniProt P10415). Kind of assay: Fluorescence polarization-based competitive binding assay. On the technique in general: Polarisation of emitted light reports the rotation of a fluorescent probe.

“And” between values parts separate entries of the source, which are not always exact repeats. Equal values may be shown once.

As to Apogossypolone [ApoG2], the “Formation of heterodimers between Bcl-XL and Bim” value in assay [1] is “blocked the formation of heterodimers between Bcl-XL and Bim in a concentration-dependent manner”. In addition, the inhibition constant Ki was 0.66 ± 0.062 µM in assay [2] and 0.035 ± 0.014 µM in assay [4] (recombinant Bcl-2, n = 3). In assay [3], the IC50 was ~0.35 µM and 0.35 µM. The “IC50 relative to Ki for Bcl-2” value in assay [4] (IC50 higher than Ki) amounted to 10 fold.

Broadly, the Ki is a dissociation constant, usually derived from enzyme kinetics or from competition with a known ligand.
